Paper PMC10023787, “Trio-pharmacophore DNA-encoded chemical library for simultaneous selection of fragments and linkers” (Nature Communications, 2023)

Chains of the proteins cited; added tags and fusions are not shown. Residues count along the entry.
UniProt P08253, 110-660 limits assumed: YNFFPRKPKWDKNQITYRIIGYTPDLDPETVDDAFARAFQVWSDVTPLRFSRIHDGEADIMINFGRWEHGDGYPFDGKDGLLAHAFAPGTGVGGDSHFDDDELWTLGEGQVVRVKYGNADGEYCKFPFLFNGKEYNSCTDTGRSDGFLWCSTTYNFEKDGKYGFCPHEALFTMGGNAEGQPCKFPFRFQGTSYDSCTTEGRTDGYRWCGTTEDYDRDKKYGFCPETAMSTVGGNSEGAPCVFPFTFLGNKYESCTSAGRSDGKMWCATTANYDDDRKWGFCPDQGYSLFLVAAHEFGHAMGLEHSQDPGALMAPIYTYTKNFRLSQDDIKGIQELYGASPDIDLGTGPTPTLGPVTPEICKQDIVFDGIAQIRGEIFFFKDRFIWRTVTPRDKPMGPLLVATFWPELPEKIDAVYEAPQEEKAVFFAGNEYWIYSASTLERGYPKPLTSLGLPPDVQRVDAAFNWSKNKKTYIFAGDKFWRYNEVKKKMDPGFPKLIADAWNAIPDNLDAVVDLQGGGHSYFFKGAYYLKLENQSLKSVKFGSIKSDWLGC
UniProt P14780, 107-707 limits assumed: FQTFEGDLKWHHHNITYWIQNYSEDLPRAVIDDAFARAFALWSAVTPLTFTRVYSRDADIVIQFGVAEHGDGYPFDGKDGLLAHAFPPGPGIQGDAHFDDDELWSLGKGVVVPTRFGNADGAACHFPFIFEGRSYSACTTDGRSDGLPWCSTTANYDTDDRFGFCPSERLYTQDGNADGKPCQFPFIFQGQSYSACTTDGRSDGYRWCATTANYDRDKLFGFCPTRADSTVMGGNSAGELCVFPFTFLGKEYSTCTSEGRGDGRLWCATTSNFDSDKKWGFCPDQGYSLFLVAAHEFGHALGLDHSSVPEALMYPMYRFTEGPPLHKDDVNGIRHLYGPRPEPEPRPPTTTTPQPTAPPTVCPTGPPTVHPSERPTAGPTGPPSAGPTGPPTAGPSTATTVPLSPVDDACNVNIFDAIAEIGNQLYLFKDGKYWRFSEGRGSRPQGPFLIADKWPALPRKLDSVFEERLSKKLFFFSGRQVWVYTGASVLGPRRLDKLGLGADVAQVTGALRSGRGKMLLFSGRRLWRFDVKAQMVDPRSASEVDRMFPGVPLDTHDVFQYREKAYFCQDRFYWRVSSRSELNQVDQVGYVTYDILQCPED

Experiments:
human MMP-2 = human MMP-2 (Homo sapiens, UniProt P08253); test: MMP-2 inhibition assay (fluorogenic peptide substrate)
MMP-9 = MMP-9 (Homo sapiens, UniProt P14780); test: MMP-9 inhibition assay (fluorogenic peptide substrate); design: scale not given here

With `O=C(NCC12CC3CC(CC(C3)C1)C2)c1cncc(O)c1` the “Mean (dose-response, Supplementary fig 17)” value (from here on “Mean”) (human MMP-2; concentration 0.0156 µM) was 102.46, the “Mean” value (human MMP-2; concentration 0.08 µM) was 101.59 and the “Mean” value (human MMP-2; concentration 0.39 µM) was 96.57. The “Mean” value (human MMP-2; concentration 1.95 µM) was 90.47, the “Mean” value (human MMP-2; concentration 9.75 µM) was 82.03 and the “Mean” value (human MMP-2; concentration 48.76 µM) was 87.12. The “Mean” value (human MMP-2; concentration 243.80 µM) was 87.61, the “Mean” value (human MMP-2; concentration 1219.00 µM) was 69.40 and the “Mean” value (MMP-9; concentration 0.08 µM) was 94.12. For the same molecule, the “Mean” value (MMP-9; concentration 0.39 µM) was 98.08, the “Mean” value (MMP-9; concentration 1.95 µM) was 87.17 and the “Mean” value (MMP-9; concentration 9.75 µM) was 92.28. The “Mean” value (MMP-9; concentration 48.76 µM) was 93.77, the “Mean” value (MMP-9; concentration 243.80 µM) was 96.99 and the “Mean” value (MMP-9; concentration 1219.00 µM) was 71.64.
